Tests used:
FLT3-ITD [1] = target: T1, FLT3-ITD (Homo sapiens, UniProt P36888, ITD); assay: HotSpot Kinase assay; format: biochemical
FLT3-ITD [2] = target: T1, FLT3-ITD; assay: KdELECT competitive binding assay

Sequences of proteins named here, by UniProt entry; tags and fusion partners are left off. Residues count along the entry.
UniProt P36888, 564-993, stated change not applied: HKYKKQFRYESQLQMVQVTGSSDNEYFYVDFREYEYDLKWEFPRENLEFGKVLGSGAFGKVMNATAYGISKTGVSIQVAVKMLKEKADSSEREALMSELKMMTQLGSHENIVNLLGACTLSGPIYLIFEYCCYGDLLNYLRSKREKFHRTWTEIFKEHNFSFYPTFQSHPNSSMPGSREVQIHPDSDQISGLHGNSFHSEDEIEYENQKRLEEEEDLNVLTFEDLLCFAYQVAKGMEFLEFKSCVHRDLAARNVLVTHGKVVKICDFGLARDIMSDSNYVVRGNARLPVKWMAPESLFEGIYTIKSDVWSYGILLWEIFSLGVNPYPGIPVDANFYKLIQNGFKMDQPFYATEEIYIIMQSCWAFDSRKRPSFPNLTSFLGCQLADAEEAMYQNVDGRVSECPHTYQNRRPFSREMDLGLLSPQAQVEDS

## C1=C/COCc2cc(ccc2OCCN2CCCC2)Nc2nccc(n2)-c2cccc(c2)COC/1 [Pacritinib, 11-(2-pyrrolidin-1-yl-ethoxy)-14,19-dioxa-5,7,26-triaza-tetracyclo[19.3.1.1(2,6). 1(8,12)]heptacosa-1(25),2(26),3,5,8,10,12(27),16,21,23-decaene]
FLT3-ITD [1]
  IC50: 9 nM
FLT3-ITD [2]
  Kd: 8.2 nM

From publication PMC6858927 (Investigational new drugs, 2019)
